Laboratory results taken from US20080308744A1, “Serum Albumin Conjugated to Fluorescent Substances for Imaging” (Beth Israel Deaconess Medical Center, priority 2003, published 2008).

What was measured:
[1] = Physical and optical properties: net charge, extinction coefficient; type: physicochemical; conditions: pH 7.4
From the text: (§1) The optical and physical properties of disulfonated indocyanine green (ICG, 775 Da), 800CW, 962 Da, ICG non-covalently associated with albumin (ICGHSA, 67 KDa), CW800-labeled human serum albumin (HSA800, 70 KDa), and CW800-labeled albumin nanocolloid (colHSA800, 7 MDa) were characterized in terms of optimal labeling ratio, relative fluorescent yield, hydrodynamic diameter, estimated net charge and excitation/emission wavelength maximum, and compared them to QDs (440 KDa). The performance of these agents in rat and pig model systems of SLN mapping for the skin, gastrointestinal tract and lung were also quantitated.

[2] = test system: sentinel lymph node; test: Intraoperative near-infrared fluorescent sentinel lymph node mapping; type: in vivo, pig
Procedure: Animal protocols were in accordance with Institutional Animal Care and Use Committee Guidelines. Adult male Sprague Yorkshire pigs of 35 kg were used. After anesthesia, 100 μL of 10 μM (1 nmol) HSA800, CW800, ICG, ICGHSA, 4 μM colHSA800 or 0.4 μM QDs in PBS, pH7.8 were injected into the thigh intradermally, and into the parenchyma of the intestine and lung, and werewas monitored in real time with the NIR fluorescence imaging system.
In order to verify the availability of those contrast agents in vivo, we operated sentinel lymph node (SLN) mapping to the pig. […] Although the inguinal lymph nodes are located under the subdermal tissue, we could easily identify the SLN with NIR guidance. […] Compared to other organic agents, certain amount of HSA800 injected entered the lymphatic channel and stayed bright for more than 1 hour.

[3] = Quantum yield measurements; type: physicochemical; conditions: compared to QD
Procedure: Quantum yields of ICG, CW800, ICGHSA (mixture of same moles of ICG and HSA), HSA800, QDs and colHSA800 were measured in solution in PBS, pH 7.8 or in 100% FBS, by comparison to ICG in DMSO as a control (13%) under condition of matched fluorophore absorbance.

[4] = Fluorescence spectrometry: relative fluorescent yield of 800 nm contrast agents; type: physicochemical; conditions: same concentration (1 μM) of the molecule, FIG. 13B
From the text: as §1
All of the samples were diluted with PBS, pH7.8, or with 100% FBS according to absorbance at λmax using 1-cm path length quartz spectrometer cell, and excited at 770 nm. Fluorescence was measured by calculating the area under the curve of the intensity from 785 nm to 950 nm subtracting the fluorescence of control PBS, pH 7.8.

[5] = test system: retroperitoneal lymph nodes; test: Lymph node mapping after injection into the groin area; type: in vivo, rat; conditions: after 1 hour, 5 nmol into the groin area

Substance | net charge [1] | time agent stayed bright in the lymphatic channel ([2]; intestine, injected into parenchyma) | lymphatic channels and SLN visualised ([2]; skin, 100 μL of 10 μM intradermally in thigh) | performance in SLN mapping (fluorescent yield, lymphatic access, SLN retention, image guidance) ([2]; skin, intestine and lung) | quantum yield ([3]; in FBS) | quantum yield ([3]; in PBS) | total fluorescence per molecule [4] | signal in the kidney or bladder (stability of conjugate) [5]
albumin: human serum albumin, unlabeled | −18 |  |  |  |  |  |  | 
HSA800: CW800-labeled human serum albumin, 70 KDa | more negatively charged | more than 1 hour | ultra-fine lymphatic channels flowing to a single SLN immediately after the injection | best performance of the organic contrast agents | rather higher | same as that of QD | highest total fluorescence per molecule | 
NIR albumin: albumin covalently labeled with IRDye78 by reaction with its N-hydroxysuccinimide ester |  |  |  |  |  |  |  | virtually no signal
